Two compounds from ChEMBL document CHEMBL1134447 (J Med Chem, 2001) can be followed below.

Some compounds may have been tested in ways that are not shown here. Bounds are passed on as bounds.

Data set [1] is described as follows: Partition coefficient (logD7.4). As to conditions: octanol/water, pH 7.4.
Data set [2] in a line: Solubility (phosphate buffered saline). As to conditions: buffer.

For orientation: logD means lipophilicity at a set pH, counting ionised and neutral species. Higher therefore signals higher lipophilicity. In turn, `Cc1ccc2[nH]c(=O)n(C3CCN(Cc4cc5c(cc4Cl)OCO5)CC3)c2c1` registered a logD in data set [1] of 2.6. For the same compound, the S in data set [2] was under 10 µM.
Taken in the same sequence, the figures for `O=[N+]([O-])c1cc2c(cc1CN1CCC(n3c(O)nc4ccccc43)CC1)OCO2` were 2.4 and under 10 µM.
